Test results published in PMC3498954 (Chembiochem : a European journal of chemical biology, 2012).

Test: Biodistribution of albumin using 99mTc-Vasculosis
Assay type: in vivo
Conditions: 24h, average (±SD), n=3

Substance: ^99mTc-HSA: 99mTc-labelled albumin (Vasculosis) used to determine the biodistribution of albumin
- Biodistribution of albumin, Axilary LN (Axilary LN): 1.86 (±0.26) % ID/g
- Biodistribution of albumin, Blood (Blood): 3.74 (±0.21) % ID/g
- Biodistribution of albumin, Brain (Brain): 0.10 (±0.01) % ID/g
- Biodistribution of albumin, Fat (neck) (Fat (neck)): 0.48 (±0.04) % ID/g
- Biodistribution of albumin, Heart (Heart): 1.31 (±0.24) % ID/g
- Biodistribution of albumin, Inguinal LN (Inguinal LN): 0.81 (±0.22) % ID/g
- Biodistribution of albumin, Intestines (Intestines): 1.83 (±0.12) % ID/g
- Biodistribution of albumin, Kidneys (Kidneys): 3.83 (±0.25) % ID/g
- Biodistribution of albumin, Liver (Liver): 1.98 (±0.16) % ID/g
- Biodistribution of albumin, Lungs (Lungs): 1.80 (±0.43) % ID/g
- Biodistribution of albumin, Mammary gland (Mammary gland): 0.68 (±0.40) % ID/g
- Biodistribution of albumin, Muscle (paw) (Muscle (paw)): 0.27 (±0.13) % ID/g
- Biodistribution of albumin, Spleen (Spleen): 1.52 (±0.16) % ID/g
- Biodistribution of albumin, Stomach (Stomach): 0.81 (±0.13) % ID/g
